Cyclic peptide permeability, from CycPeptMPDB

Data: CycPeptMPDB; original report Townsend et al. 2020, doi:10.26434/chemrxiv.13335941.v1.

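Conditions beyond the assay type are not listed; see the original paper. Other peptides of the study may be missing here. Peptides that the database sets to -10, its floor, are left out.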

PAMPA is the parallel artificial membrane permeability assay, which has no cells and reads passive diffusion.
Permeability is given as log10 of P in cm/s; higher (less negative) is more permeable.

| PAMPA (log10 cm/s) | structure (SMILES) |
|---|---|
| -5.92 | CC(C)C[C@@H]1C(=O)N[C@@H](Cc2ccccc2)C(=O)N2CCC[C@@H]2C(=O)N[C@@H](Cc2ccccc2)CC(=O)N(Cc2ccccc2)CC(=O)N[C@@H](Cc2ccccc2)CC(=O)N2CCC[C@@H]2C(=O)N1C |
| -5.62 | CC(C)C[C@@H]1NC(=O)[C@H]2CCCN2C(=O)[C@H](CC(C)C)N(C)C(=O)[C@H](CC(C)C)NC(=O)[C@H](C)NC(=O)[C@H](Cc2ccccc2)NC1=O |
| -5.19 | CC(C)C[C@H]1C(=O)N2CCC[C@@H]2C(=O)N(C)[C@@H](CC(C)C)C(=O)N[C@@H](Cc2ccccc2)C(=O)N[C@@H](C)C(=O)N(Cc2ccccc2)CC(=O)N1C |
| -6.39 | CC(C)C[C@@H]1NC(=O)[C@H](C)NC(=O)[C@H]2CCCN2C(=O)[C@H](Cc2ccccc2)NC(=O)CN(Cc2ccccc2)C(=O)[C@@H]2CCCN2C(=O)[C@@H](CC(C)C)NC1=O |
| -5.34 | CC(C)C[C@@H]1NC(=O)[C@H](CC(C)C)N(C)C(=O)[C@@H](C)N(C)C(=O)[C@H]2CCCN2C(=O)[C@H](Cc2ccccc2)NC(=O)[C@H](CC(C)C)N(C)C(=O)[C@@H]2CCCN2C1=O |
| -5.26 | CCCN1CC(=O)N(Cc2ccccc2)CC(=O)N[C@@H](CC(C)C)C(=O)N2CCC[C@@H]2C(=O)N(C)[C@@H](CC(C)C)C(=O)N[C@@H](Cc2ccccc2)C(=O)N2CCC[C@H]2C1=O |
| -5.29 | CC(C)C[C@@H]1NC(=O)[C@H]2CCCN2C(=O)[C@H](CC(C)C)NC(=O)[C@H](CC(C)C)N(C)C(=O)[C@H](C)N(C)C(=O)[C@H](Cc2ccccc2)NC1=O |
| -5.76 | CC(C)C[C@@H]1NC(=O)[C@H]2CCCN2C(=O)[C@@H](CC(C)C)NC(=O)[C@@H](CC(C)C)NC(=O)C[C@H](Cc2ccccc2)NC(=O)[C@@H]2CCCN2C(=O)[C@H](Cc2ccccc2)NC1=O |
| -5.46 | CC(C)C[C@@H]1NC(=O)[C@H](CC(C)C)N(C)C(=O)C[C@H](Cc2ccccc2)NC(=O)[C@@H]2CCCN2C(=O)[C@H](Cc2ccccc2)NC(=O)[C@@H](CC(C)C)NC(=O)[C@H]2CCCN2C1=O |
| -6.39 | CC(C)C[C@H]1NC(=O)[C@H](C)NC(=O)[C@H](Cc2ccccc2)NC(=O)[C@@H](CC(C)C)NC(=O)[C@@H]2CCCN2C(=O)[C@@H](CC(C)C)NC1=O |
| -5.40 | CC(C)C[C@@H]1C(=O)N[C@@H](Cc2ccccc2)C(=O)N(C)[C@H](C)C(=O)N(C)[C@@H](CC(C)C)C(=O)N[C@@H](Cc2ccccc2)CC(=O)N2CCC[C@@H]2C(=O)N1C |
| -5.58 | CCCN1CC(=O)N(C)[C@H](CC(C)C)C(=O)N(C)[C@H](CC(C)C)C(=O)N2CCC[C@@H]2C(=O)N(Cc2ccccc2)CC(=O)N[C@@H](Cc2ccccc2)C(=O)N2CCC[C@@H]2C1=O |
| -4.95 | CC(C)C[C@@H]1NC(=O)[C@H](C)N(C)C(=O)[C@H]2CCCN2C(=O)[C@H](Cc2ccccc2)NC(=O)[C@H](CC(C)C)N(C)C(=O)[C@H]2CCCN2C(=O)[C@H](CC(C)C)N(C)C1=O |
| -6.05 | CC(C)C[C@@H]1C(=O)N[C@@H](Cc2ccccc2)C(=O)N2CCC[C@@H]2C(=O)N[C@H](C)C(=O)N[C@H](CC(C)C)C(=O)N[C@@H](Cc2ccccc2)CC(=O)N2CCC[C@@H]2C(=O)N1C |
| -5.29 | CC(C)C[C@H]1C(=O)N(C)[C@@H](CC(C)C)C(=O)N2CCC[C@H]2C(=O)N(C)[C@@H](CC(C)C)C(=O)N[C@@H](Cc2ccccc2)C(=O)N[C@@H](Cc2ccccc2)CC(=O)N1C |
| -5.63 | CC(C)C[C@H]1C(=O)N[C@@H](Cc2ccccc2)C(=O)N2CCC[C@@H]2C(=O)N[C@@H](C)C(=O)N(Cc2ccccc2)CC(=O)N[C@@H](Cc2ccccc2)CC(=O)N2CCC[C@H]2C(=O)N1C |
| -5.38 | CC(C)C[C@@H]1C(=O)N[C@H](CC(C)C)C(=O)N2CCC[C@H]2C(=O)N(C)[C@@H](CC(C)C)C(=O)N[C@@H](Cc2ccccc2)C(=O)N[C@H](C)C(=O)N1C |
| -5.81 | CC(C)C[C@@H]1NC(=O)[C@@H]2CCCN2C(=O)CN(Cc2ccccc2)C(=O)[C@@H](CC(C)C)NC(=O)[C@H](C)NC(=O)[C@H](Cc2ccccc2)NC1=O |
| -6.07 | CCCN1CC(=O)N[C@H](CC(C)C)C(=O)N(C)[C@H](CC(C)C)C(=O)N2CCC[C@@H]2C(=O)N[C@@H](CC(C)C)C(=O)N[C@@H](Cc2ccccc2)C(=O)N2CCC[C@H]2C1=O |
| -5.30 | CCCN1CC(=O)N(C)[C@H](CC(C)C)C(=O)N[C@@H](CC(C)C)C(=O)N2CCC[C@H]2C(=O)N(C)[C@H](CC(C)C)C(=O)N[C@@H](Cc2ccccc2)C(=O)N2CCC[C@H]2C1=O |
| -6.39 | CC(C)C[C@@H]1NC(=O)[C@@H](C)N(C)C(=O)[C@H](Cc2ccccc2)NC(=O)[C@H](CC(C)C)NC(=O)[C@H]2CCCN2C(=O)[C@@H](CC(C)C)NC1=O |
| -6.78 | CC(C)C[C@@H]1NC(=O)[C@H]2CCCN2C(=O)[C@@H](CC(C)C)N(C)C(=O)[C@H](CC(C)C)N(C)C(=O)[C@@H](C)N(C)C(=O)[C@H]2CCCN2C(=O)[C@H](Cc2ccccc2)NC1=O |
| -6.01 | CC(C)C[C@@H]1C(=O)N[C@@H](Cc2ccccc2)C(=O)N2CCC[C@@H]2C(=O)N(C)[C@H](C)C(=O)N[C@H](CC(C)C)C(=O)N(Cc2ccccc2)CC(=O)N2CCC[C@@H]2C(=O)N1C |

2 of these entries, quoted again:

| structure (SMILES) | PAMPA (log10 cm/s) |
|---|---|
| CC(C)C[C@@H]1NC(=O)[C@H]2CCCN2C(=O)[C@@H](CC(C)C)N(C)C(=O)[C@H](CC(C)C)N(C)C(=O)[C@@H](C)N(C)C(=O)[C@H]2CCCN2C(=O)[C@H](Cc2ccccc2)NC1=O | -6.78 |
| CC(C)C[C@@H]1NC(=O)[C@@H](C)N(C)C(=O)[C@H](Cc2ccccc2)NC(=O)[C@H](CC(C)C)NC(=O)[C@H]2CCCN2C(=O)[C@@H](CC(C)C)NC1=O | -6.39 |